How the values were obtained:
purified HLA DRB1*0901 = target: T1, purified HLA DRB1*0901 (Homo sapiens, UniProt P01903+P01911, A100R/A103E/D57H/D86V/F55Y/F60I/F76Y/I96F/K127E/L162R/M171V/P40D/Q125H/Q99R/R33Q/R42F/S133A/S66N/T210M/V115G/W38K/Y107V/Y59G/Y89S); experiment: HLA-DR radioligand binding inhibition assay, DRB1*0901
T1 construct: MHC molecules utilized were purified from EBV transformed homozygous cell lines or single MHC allele transfected 721.221, C1R, or fibroblast lines; made in house; host or cells: EBV transformed homozygous cell lines or single MHC allele transfected 721.221, C1R, or fibroblast lines

Amino acid sequences for entries named in this document (tags omitted). A change or cut given only in a name is not applied to a line headed by its entry.
UniProt P01911: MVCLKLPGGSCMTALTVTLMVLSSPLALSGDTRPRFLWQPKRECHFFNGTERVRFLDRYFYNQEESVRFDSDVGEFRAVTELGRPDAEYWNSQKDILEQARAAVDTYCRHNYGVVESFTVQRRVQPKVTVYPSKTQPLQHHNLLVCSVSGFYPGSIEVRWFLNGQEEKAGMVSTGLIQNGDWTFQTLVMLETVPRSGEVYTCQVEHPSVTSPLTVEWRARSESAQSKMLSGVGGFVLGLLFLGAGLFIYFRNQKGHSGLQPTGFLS

purified HLA DRB1*1201 = target: T2, purified HLA DRB1*1201 (Homo sapiens, UniProt P01903+P01911, A100R/A169T/D57E/D86V/F55L/H45Y/K41T/L162R/M171V/P40S/Q125H/Q178H/Q39Y/Q99D/R42G/S66L/T262R/V114A/V67L/W38E/Y59H/Y61H/Y89S); experiment: HLA-DR radioligand binding inhibition assay, DRB1*1201; conditions: column 5 of second part of Table I
T2 construct: MHC molecules utilized were purified from EBV transformed homozygous cell lines or single MHC allele transfected 721.221, C1R, or fibroblast lines; made in house; host or cells: EBV transformed homozygous cell lines or single MHC allele transfected 721.221, C1R, or fibroblast lines

purified HLA DRB1*0802 = target: T3, purified HLA DRB1*0802 (Homo sapiens, UniProt P01903+P01911, A100R/A103L/A169T/F76Y/H45Y/I96F/K41T/L162R/M171V/P40S/Q125H/Q178H/Q39Y/Q99D/R218S/R42G/S66Y/V115G/W38E); experiment: HLA-DR radioligand binding inhibition assay, DRB1*0802
T3 construct: MHC molecules utilized were purified from EBV transformed homozygous cell lines or single MHC allele transfected 721.221, C1R, or fibroblast lines; made in house; host or cells: EBV transformed homozygous cell lines or single MHC allele transfected 721.221, C1R, or fibroblast lines

Measured: IC50

CC(C)C[C@H](NC(=O)[C@H](CC(=O)O)NC(=O)[C@H](CO)NC(=O)[C@@H](N)CCCCN)C(=O)N[C@H](C(=O)N[C@@H](CC(N)=O)C(=O)N[C@@H](CCC(=O)O)C(=O)N[C@@H](CCC(=O)O)C(=O)N[C@@H](C)C(=O)N[C@H](C(=O)NCC(=O)N[C@@H](CCC(N)=O)C(=O)N[C@@H](Cc1ccccc1)C(=O)N[C@@H](CCCNC(=N)N)C(=O)N[C@H](C(=O)O)C(C)C)[C@@H](C)O)C(C)C [Peptide 9019.0115]
> 20 µM: purified HLA DRB1*0901 | purified HLA DRB1*1201 | purified HLA DRB1*0802
